Assays:
[1] = target: full-length MALT1 protein (Strep-MALT1(1-824)-His) (Homo sapiens, UniProt Q9UDY8); assay: MALT1 Biochemical Protease Assay; details: read-out: MALT1_Biochemical activity (Ac-LRSR-amc) IC50; 10 nM FL MALT1, 200 μM Ac-LRSR-AMC, 50 min pre-incubation, 4 h at RT
Protocol: MALT1 protease activity was assessed in an in vitro assay using a tetrapeptide as substrate and full-length MALT1 protein (Strep-MALT1(1-824)-His) purified from baculovirus-infected insect cells. The tetrapeptide LRSR is coupled to AMC (7-amino-4-methylcoumarin) and provides a quenched, fluorescent substrate for the MALT1 protease (SM Biochemicals). Cleavage of AMC from the Arginine residue results in an increase in coumarin fluorescence measured at 460 nm (excitation 355 nm). The final assay buffer consisted of 10 nM FL MALT1 protein, 200 μM Ac-LRSR-AMC, 50 mM Tris pH 7.5, 0.6 M Citrate, 1 mM DTT, 1 mM EDTA, 0.05% BSA and 1.5% DMSO. Test compounds were spotted at 50 nL in 100% DMSO per well of a black 384-Proxiplate (Perkin Elmer). Test compound concentrations ranged from 30 μM to 0.5 nM using 11 dilution steps (1:3). Background signal was measured from control wells containing assay buffer without enzyme which functions as low control (LC). […] Substrate was added subsequently and fluorescence was measured in Labsystems fluoroskan at excitation 355 nm and emission 460 nm to determine time 0. The reaction was subsequently incubated for 4 h at RT and fluorescence was measured. […] Characterization of the substrate Ac-LRSR-AMC determined the Michaelis constant KM at 200 μM.
IC50 values were calculated using the following formula (Z prime should be >0.5): […]

By UniProt entry, the sequences of proteins in these tests, tags left out.
UniProt Q9UDY8, whole entry: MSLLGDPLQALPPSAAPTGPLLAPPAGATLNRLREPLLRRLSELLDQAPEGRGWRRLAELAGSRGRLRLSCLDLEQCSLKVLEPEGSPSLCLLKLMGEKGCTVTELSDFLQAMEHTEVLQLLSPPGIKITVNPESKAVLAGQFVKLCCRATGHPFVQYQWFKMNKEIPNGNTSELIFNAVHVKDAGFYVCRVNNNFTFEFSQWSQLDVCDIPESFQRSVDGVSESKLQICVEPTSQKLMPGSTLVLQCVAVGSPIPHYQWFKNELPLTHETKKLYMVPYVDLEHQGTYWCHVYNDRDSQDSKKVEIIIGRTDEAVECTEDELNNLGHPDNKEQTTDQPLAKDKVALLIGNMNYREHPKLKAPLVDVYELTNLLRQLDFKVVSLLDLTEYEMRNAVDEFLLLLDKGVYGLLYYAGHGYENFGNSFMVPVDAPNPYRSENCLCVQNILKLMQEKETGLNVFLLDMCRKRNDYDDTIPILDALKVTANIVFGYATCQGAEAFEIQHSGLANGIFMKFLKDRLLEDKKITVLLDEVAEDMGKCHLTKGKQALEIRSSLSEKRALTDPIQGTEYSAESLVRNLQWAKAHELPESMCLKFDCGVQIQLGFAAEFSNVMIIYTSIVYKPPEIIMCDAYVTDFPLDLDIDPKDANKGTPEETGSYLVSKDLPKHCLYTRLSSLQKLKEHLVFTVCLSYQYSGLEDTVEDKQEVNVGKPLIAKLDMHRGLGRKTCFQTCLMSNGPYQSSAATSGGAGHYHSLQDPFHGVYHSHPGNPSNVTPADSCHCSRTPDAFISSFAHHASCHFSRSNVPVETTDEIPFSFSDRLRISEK

[2] = test system: secretion of IL10 by OCI-LY3 ABC-DLBCL cells; assay: Human IL10 Mesoscale assay (OCI-LY3); details: read-out: Human IL10 Mesoscale assay (OCI-LY3) IC50, 24 h incubation, IL10 in supernatant
Protocol: (§1) NFKB signaling regulates the secretion of multiple cytokines, including IL6 and IL10. Secretion of the cytokines IL6 and IL10 by OCI-LY3 ABC-DLBCL cells was measured using a mesoscale assay. Inhibition of NFKB signaling by MALT1 inhibitors results in a decrease of IL6/10 secretion.
(§2) OCI-LY3 cells were propagated in RPMI-1640 (Sigma Aldrich) supplemented with 10% fetal bovine serum (HyClone), 1 mM sodium pyruvate (Invitrogen), 2 mM L-glutamine (Sigma Aldrich) and 1% PenStrep (Sigma Aldrich). Cell passage number should not exceed 30. Cells should be kept between 0.5-2.5 million cells per mL during culturing and cells should be supplemented every 2-3 days with fresh 50 μM beta-mercaptoethanol. No beta-mercaptoethanol was used during the mesoscale assay.
(§3) For the Mesoscale assay, 100,000 OCI-LY3 cells were seeded per well into black-colored 96-well plates with clear bottom (Corning #3904) and test compounds were added in 9 dilution steps (1:2) ranging from 15 μM to 58.6 nM (final DMSO concentration 0.3%). DMSO control wells were used to determine the maximum signal (High Control (HC)). […] After 3× washes with PBS+0.05% Tween-20, plates were incubated with 150 μL 2× Read Buffer T and read on SECTOR imager.

[3] = test system: secretion of IL6 by OCI-LY3 ABC-DLBCL cells; assay: Human IL6 Mesoscale assay (OCI-LY3); details: read-out: Human IL6 Mesoscale assay (OCI-LY3) IC50, 24 h incubation, IL6 in supernatant
Protocol: as §1, §2, §3

IC50 [1]	IC50 [2]	IC50 [3]	Compound
1200 nM	1580 nM	2690 nM	CO[C@H](C)c1c(NC(=O)Nc2cnc(-n3ncc(C(C)(C)O)n3)c(Cl)c2)cnc(C)c1Cl
40 nM	100 nM	150 nM	CO[C@@H](C)c1c(NC(=O)Nc2cnc(-n3ncc(C(C)(C)O)n3)c(Cl)c2)cnc(C)c1Cl
